Legend:
[1] = Permeability assessed as mean mass balance at 200 uM incubated for 4 hrs by PAMPA method
[2] = Permeability at 200 uM incubated for 4 hrs by PAMPA method
[3] = biological target: T1, Delta-type opioid receptor (Homo sapiens, UniProt P41143); test: Agonist activity at human DOR expressed in CHO cell membranes incubated for 1 hr by [35S]-GTPgammaS coupling assay
[4] = biological target: T2, Kappa-type opioid receptor (Homo sapiens, UniProt P41145); test: Displacement of [3H]-diprenorphine from human KOR expressed in CHO cell membranes incubated for 1 hr by scintillation counting method
[5] = biological target: T3, Mu-type opioid receptor (Homo sapiens, UniProt P35372); test: Displacement of [3H]-diprenorphine from human MOR expressed in CHO cell membranes incubated for 1 hr by scintillation counting method
[6] = biological target: T1, Delta-type opioid receptor; test: Displacement of [3H]-diprenorphine from human DOR expressed in CHO cell membranes incubated for 1 hr by scintillation counting method
[7] = biological target: T2, Kappa-type opioid receptor; test: Agonist activity at human KOR expressed in CHO cell membranes incubated for 1 hr by [35S]-GTPgammaS coupling assay
[8] = biological target: T1, Delta-type opioid receptor; test: Antagonist activity at human DOR expressed in CHO cell membranes assessed as reduction in SNC80-induced response incubated for 1 hr by [35S]-GTPgammaS coupling assay
[9] = biological target: T3, Mu-type opioid receptor; test: Agonist activity at human MOR expressed in CHO cell membranes incubated for 1 hr by [35S]-GTPgammaS coupling assay
[10] = Tmax in CD1 mouse at 2.1 mg/kg, sc measured over 2 hrs by LC/MS/MS analysis; conditions: in vivo
[11] = Half life in CD1 mouse at 2.1 mg/kg, sc measured over 2 hrs by LC/MS/MS analysis; conditions: in vivo
[12] = Total drug level in CD1 mouse brain at 2.1 mg/kg, sc measured over 2 hrs by LC/MS/MS analysis; conditions: in vivo, strain CD1, Brain
[13] = Unbound fraction in CD1 mouse plasma at 2.1 mg/kg, sc measured over 2 hrs by LC/MS/MS analysis; conditions: in vivo, strain CD1, Plasma
[14] = Stability in human plasma assessed as elimination rate at 5 uM at 37 degC measured up to 250 mins by LC-MS analysis
[15] = Stability in human plasma assessed as half life at 5 uM at 37 degC measured up to 250 mins by LC-MS analysis
[16] = AUC (infinity) in CD1 mouse at 2.1 mg/kg, sc measured over 2 hrs by LC/MS/MS analysis; conditions: in vivo
[17] = Stability in human plasma assessed as parent compound remaining level at 5 uM at 37 degC measured at 240 mins by LC-MS analysis; conditions: 4 h
[18] = Total drug level in CD1 mouse plasma at 2.1 mg/kg, sc measured over 2 hrs by LC/MS/MS analysis; conditions: read-out: Cp, in vivo, strain CD1, Plasma
[19] = Cmax in CD1 mouse at 2.1 mg/kg, sc measured over 2 hrs by LC/MS/MS analysis; conditions: in vivo
[20] = system: Mus musculus; test: Antinociceptive activity in 2.1 umol/kg, ip opioid antagonist naloxone methiodide pre-treated CD1 mouse assessed as reduction in thermal nociception at 1.5 umol/kg, iv dosed 15 mins before test and measured after 15 to 120 mins post compound dose by hot plate test relative to control

Protein sequences, listed by entry. Tags and fused reporters are not part of them. Lines headed by an entry give the natural chain unless they say otherwise; changes in a name come on top.
UniProt P41143, whole entry, looked up: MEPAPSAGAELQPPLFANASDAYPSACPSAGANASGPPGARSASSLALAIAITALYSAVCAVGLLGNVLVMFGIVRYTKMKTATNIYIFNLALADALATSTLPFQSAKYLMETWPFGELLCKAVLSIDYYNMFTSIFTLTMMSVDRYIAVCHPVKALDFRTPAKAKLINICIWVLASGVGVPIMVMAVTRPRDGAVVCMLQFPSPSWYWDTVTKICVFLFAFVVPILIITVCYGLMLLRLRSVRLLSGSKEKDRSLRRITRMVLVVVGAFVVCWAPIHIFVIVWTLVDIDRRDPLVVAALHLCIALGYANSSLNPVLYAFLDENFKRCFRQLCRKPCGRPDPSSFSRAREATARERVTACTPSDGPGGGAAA
UniProt P41145: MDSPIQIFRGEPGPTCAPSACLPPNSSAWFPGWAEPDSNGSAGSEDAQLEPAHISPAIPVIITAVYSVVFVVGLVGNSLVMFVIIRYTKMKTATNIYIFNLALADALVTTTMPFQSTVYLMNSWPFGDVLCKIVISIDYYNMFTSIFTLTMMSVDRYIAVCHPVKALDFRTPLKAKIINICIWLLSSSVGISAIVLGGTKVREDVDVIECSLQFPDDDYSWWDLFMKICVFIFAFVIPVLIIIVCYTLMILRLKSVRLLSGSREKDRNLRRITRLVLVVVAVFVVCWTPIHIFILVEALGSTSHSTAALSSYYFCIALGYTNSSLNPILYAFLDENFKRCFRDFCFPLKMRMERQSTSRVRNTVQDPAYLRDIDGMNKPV
UniProt P35372, whole entry, looked up: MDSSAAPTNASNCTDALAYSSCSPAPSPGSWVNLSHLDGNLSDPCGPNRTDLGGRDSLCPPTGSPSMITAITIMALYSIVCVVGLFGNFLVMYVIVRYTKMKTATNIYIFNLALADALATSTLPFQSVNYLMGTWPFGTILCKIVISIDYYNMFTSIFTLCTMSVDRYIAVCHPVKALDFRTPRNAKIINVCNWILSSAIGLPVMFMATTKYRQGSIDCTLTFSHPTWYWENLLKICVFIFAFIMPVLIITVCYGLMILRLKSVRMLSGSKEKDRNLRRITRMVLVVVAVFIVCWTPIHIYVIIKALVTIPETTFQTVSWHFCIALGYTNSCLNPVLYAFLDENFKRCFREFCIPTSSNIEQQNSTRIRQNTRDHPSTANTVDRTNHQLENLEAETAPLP

Cc1cc(O)cc(C)c1C[C@H](N)C(=O)N[C@@H]1CCCCNC(=O)C[C@@H](C(N)=O)NC(=O)[C@@H](Cc2ccccc2)CC(=O)[C@H](Cc2ccc(C(F)(F)F)cc2)NC1=O gave an Activity [1] of 95.8% and a Peff [2] of less than 0.58 ×10⁻⁶ cm/s.
N[C@@H](Cc1ccc(O)cc1)C(=O)N[C@@H]1CSCc2ccccc2CSC[C@@H](NC(=O)[C@@H](N)Cc2ccc(O)cc2)C(=O)NCC(=O)N[C@@H](Cc2ccc(F)cc2)C(=O)NNC(=O)[C@H](Cc2ccc(F)cc2)NC(=O)CNC1=O gave an EC50 [3] of 142 nM, a Ki [4] of 293 nM and a Ki [5] of 15.9 nM. The Ki [6] was 4.94 nM, the EC50 [7] was 806 nM and the IC50 [8] was 8.9 nM. The EC50 [9] was 7.5 nM.
Molecule Cc1cc(O)cc(C)c1C[C@H](N)C(=O)N[C@@H]1CSCc2ccccc2CSC[C@@H](NC(=O)[C@@H](N)Cc2c(C)cc(O)cc2C)C(=O)NCC(=O)N[C@@H](Cc2ccc(F)cc2)C(=O)NNC(=O)[C@H](Cc2ccc(F)cc2)NC(=O)CNC1=O.O=C(O)C(F)(F)F.O=C(O)C(F)(F)F has a Tmax [10] of 4.98 min, an Activity [1] of 97.4% and a t1/2 [11] of 0.513 h. The Drug uptake [12] was 5 ng/g, the Fu [13] was 0.98 and the Peff [2] was less than 0.587 ×10⁻⁶ cm/s. It also gave a Kel [14] of 8.33e-06 s⁻¹, a t1/2 [15] greater than 4 h and an AUC [16] of 0.433 µM·h. The Stability [17] was 88.1%.
For Cc1cc(O)cc(C)c1C[C@H](N)C(=O)N[C@@H]1CSCc2ccccc2CSC[C@@H](NC(=O)[C@@H](N)Cc2c(C)cc(O)cc2C)C(=O)NCC(=O)N[C@@H](Cc2ccc(F)cc2)C(=O)NNC(=O)[C@H](Cc2ccc(F)cc2)NC(=O)CNC1=O, the concentration [18] was 10 nM, the EC50 [3] was 8.1 nM and the Ki [4] was 76.7 nM. The Ki [5] was 13.8 nM, the Ki [6] was 8.2 nM and the EC50 [7] was 46.7 nM. It also gave a Cmax [19] of 548 nM and an EC50 [9] of less than 0.51 nM.
Work on N[C@@H](Cc1ccc(O)cc1)C(=O)N[C@@H]1CSCc2ccccc2CSC[C@@H](NC(=O)[C@@H](N)Cc2ccc(O)cc2)C(=O)NCC(=O)N[C@@H](Cc2ccc(F)cc2)C(=O)N2CCN(CC2)C(=O)[C@H](Cc2ccc(F)cc2)NC(=O)CNC1=O yielded an EC50 [3] of 4.3 nM, a Ki [4] of 121 nM and a Ki [5] of 22.8 nM. For the same molecule, the Ki [6] was 7.88 nM, the EC50 [7] was 25.9 nM and the EC50 [9] was 3.4 nM.
For N[C@@H](Cc1ccc(O)cc1)C(=O)N[C@@H]1CSCc2ccccc2CSC[C@@H](NC(=O)[C@@H](N)Cc2ccc(O)cc2)C(=O)NCC(=O)N[C@@H](Cc2ccc(F)cc2)C(=O)N2CCN(CC2)C(=O)[C@H](Cc2ccc(F)cc2)NC(=O)CNC1=O.O=C(O)C(F)(F)F.O=C(O)C(F)(F)F, the MPE [20] was less than 25%.
With N[C@@H](Cc1ccc(O)cc1)C(=O)N[C@@H]1CSCc2ccccc2CSC[C@@H](NC(=O)[C@@H](N)Cc2ccc(O)cc2)C(=O)NCC(=O)N[C@@H](Cc2ccc(F)cc2)C(=O)NNC(=O)[C@H](Cc2ccc(F)cc2)NC(=O)CNC1=O.O=C(O)C(F)(F)F.O=C(O)C(F)(F)F the Activity [1] was 103%, the Peff [2] was 2.16 ×10⁻⁶ cm/s and the Kel [14] was 6.67e-06 s⁻¹. The t1/2 [15] was greater than 4 h and the Stability [17] was 91.7%.
C[C@@H](NCC(=O)N[C@@H](Cc1ccc(F)cc1)C(=O)N1CCN(C(=O)[C@H](Cc2ccc(F)cc2)NC(=O)CNC(=O)[C@@H](C)NC(=O)[C@@H](N)Cc2ccc(O)cc2)CC1)C(=O)N[C@@H](Cc1ccc(O)cc1)C(N)=O showed an Activity [1] of 98.4%, a Peff [2] of 0.693 ×10⁻⁶ cm/s and a Kel [14] of 3.33e-06 s⁻¹. For the same molecule, the t1/2 [15] was greater than 4 h and the Stability [17] was 96.1%.
In the case of Cn1c(=O)c2[nH]cnc2n(C)c1=O.O, the Activity [1] is reported as 94.5%.
With CC1CC(OC(=O)C(O)c2ccccc2)CC(C)(C)N1C (centres undefined) the Kel [14] was 0.000147 s⁻¹ and the t1/2 [15] was 1.31 h.
With N[C@@H](Cc1ccc(O)cc1)C(=O)N[C@@H]1CSSC[C@@H](NC(=O)[C@@H](N)Cc2ccc(O)cc2)C(=O)NCC(=O)N[C@@H](Cc2ccc(F)cc2)C(=O)N2CCN(CC2)C(=O)[C@H](Cc2ccc(F)cc2)NC(=O)CNC1=O the EC50 [3] was 4 nM, the Ki [4] was 138 nM and the Ki [5] was 83.7 nM. It also gave a Ki [6] of 31.4 nM, an EC50 [7] of 9.7 nM and an IC50 [8] of 404 nM. The EC50 [9] was 6.2 nM.

Source: ChEMBL document CHEMBL4402550, “Potent, Efficacious, and Stable Cyclic Opioid Peptides with Long Lasting Antinociceptive Effect after Peripheral Administration” (2020)
